Test results from PubChem BioAssay AID1347041 (National Center for Advancing Translational Sciences (NCATS), 2019).
This is a selection; strong and weak results do not stand in their true shares. Active and inactive are the calls of the source. Cut-off read from the data, not from the text of the source: active = activity change below about -30%; inconclusive = mostly about -25% to -30%; inactive = weaker than that.

Each compound was assayed against L-lactate dehydrogenase A chain (Homo sapiens) (UniProt P00338) (assay: qHTS assay for inhibitors of human lactate dehydrogenase). Details: purified LDHA, NADH/diaphorase-resazurin fluorescence; stronger effect = lower value.
Procedure, shortened: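 Human LDH5 (2 nM) was incubated with 0.06 mM NADH and 0.2 mM pyruvate for 5 min at room temperature in Tris pH 7.4. Remaining NADH was coupled through diaphorase/resazurin, and resorufin fluorescence was read at 0 and 20 min.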
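Note: values are at about 110 or 230 µM; plate controls were DMSO wells for no effect and wells without enzyme for full effect.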

Structure (SMILES)	activity change
CP(=O)(Nc1cccc(Br)c1)Oc1ccccc1 (configuration not stated)	inactive: 1.32%
Cc1cc(C)cc(OP(C)(=O)Nc2ccccn2)c1 (configuration not stated)	inactive: -8.92%
COc1ccccc1OP(C)(=O)Nc1cccc(Br)c1 (configuration not stated)	inactive: -3.1%
CCOC(=O)c1ccc(NP(C)(=O)Oc2cc(C)cc(C)c2)cc1 (configuration not stated)	inactive: -3.67%
Cc1cc(C)cc(OP(C)(=O)Nc2ccc(C)cc2C)c1 (configuration not stated)	inactive: 4.48%
O=[N+]([O-])c1cc([N+](=O)[O-])c(-c2cnn(-c3ccccc3)c2)c([N+](=O)[O-])c1	inactive: 15.4%
Cc1nc2ccc3ccccc3c2s1.O=[N+]([O-])c1cc([N+](=O)[O-])c(O)c([N+](=O)[O-])c1	inactive: -3.05%
O=[N+]([O-])c1cc([N+](=O)[O-])c(-n2nnc3ccccc32)c([N+](=O)[O-])c1	inactive: -1.81%
CN(Cc1cccnc1)C(=O)COc1ccc(Cl)c(Cl)c1.O=[N+]([O-])c1cc([N+](=O)[O-])c(O)c([N+](=O)[O-])c1	inactive: -5.5%
CN1CCCCC1COC(=O)C1(O)c2ccccc2CCc2ccccc21 (configuration not stated)	inactive: 2.68%
COc1ccccc1OP(C)(=O)Nc1c(C)cccc1C (configuration not stated)	inactive: -5.21%
CP(=O)(Nc1ccc(SC(F)(F)F)cc1)Oc1ccccc1 (configuration not stated)	inactive: -1.04%
CCCOc1ccc(NP(C)(=O)Oc2ccc(Cl)cc2)cc1 (configuration not stated)	inactive: -6.72%
O=[N+]([O-])c1cc([N+](=O)[O-])c(Nc2nnnn2CCO)c([N+](=O)[O-])c1	inactive: -9.06%
CC1=C2N=C(C=C3N=C(C(C)=C4[N-][C@@](C)([C@@H]5N=C1[C@](C)(CCC(=O)NC[C@@H](C)OP(=O)([O-])O[C@H]1[C@@H](O)[C@@H](n6cnc7cc(C)c(C)cc76)O[C@@H]1CO)[C@H]5CC(N)=O)[C@@](C)(CC(N)=O)[C@@H]4CCC(N)=O)[C@@](C)(CC(N)=O)[C@@H]3CCC(N)=O)C(C)(C)[C@@H]2CCC(N)=O.[C-]#N.[Co+3]	inactive: -0.282%
O=[N+]([O-])c1ccc(OP2(=O)COCCO2)cc1 (configuration not stated)	inactive: -13.6%
Cc1cc(-c2cccc3ccccc23)c(C)cn1.O=[N+]([O-])c1cc([N+](=O)[O-])c(O)c([N+](=O)[O-])c1	inactive: -3.93%
Cc1c(C(c2ccc3c(c2)OCO3)c2c(C)n(C)n(-c3ccccc3)c2=O)c(=O)n(-c2ccccc2)n1C.O=[N+]([O-])c1cc([N+](=O)[O-])c(O)c([N+](=O)[O-])c1	inactive: 1.41%
COc1ccc(OP(C)(=O)Nc2cccc(Br)c2)cc1 (configuration not stated)	inactive: -7.05%
CN(C)CCOC(=O)C(O)(c1ccccc1)C1CCCCC1 (configuration not stated)	inactive: -7.24%
COc1ccc(NP(C)(=O)Oc2ccccc2OC)cc1 (configuration not stated)	inactive: 9.12%

Structure (SMILES)	activity change
CP(=O)(Nc1ccc2c(c1)OCCO2)Oc1ccccc1 (configuration not stated)	inactive: 3.49%
Cc1ccccc1NP(C)(=O)Nc1ccccc1C	inactive: -4.22%
O=[N+]([O-])c1cc([N+](=O)[O-])c(C(F)(F)F)c([N+](=O)[O-])c1O	inactive: -2.52%
CP(=O)(Nc1ccc(SC(F)(F)F)cc1)Oc1ccc(F)cc1 (configuration not stated)	inactive: 1.84%
CCOP(C)(=S)SCC(=O)NC(C)(CC)C(=O)O (configuration not stated)	inactive: 0.855%
O=C(OCCN1CCN(CCOCc2ccccc2)CC1)C(O)(c1ccccc1)c1ccccc1	inactive: -3.5%
CP(=O)(Nc1ccccc1F)Oc1ccccc1 (configuration not stated)	inactive: -3.16%
CC(C)c1ccc(OP(C)(=O)Nc2ccc(SC(F)(F)F)cc2)cc1 (configuration not stated)	inactive: 8.04%
Cc1c([N+](=O)[O-])cc([N+](=O)[O-])c(Br)c1[N+](=O)[O-]	inactive: -0.0948%
CCN(CC)CCCOC(=O)C(O)(c1ccccc1)C1CCCCC1 (configuration not stated)	inactive: -3.31%
CP(=O)(Nc1ccccc1)Oc1ccc(F)cc1 (configuration not stated)	inactive: -1.89%
CCCCCOc1ccc(NP(C)(=O)Oc2ccc(Cl)cc2Cl)cc1 (configuration not stated)	inactive: 3.16%
CCOC(=O)c1ccc(NP(C)(=O)Oc2ccc(F)cc2)cc1 (configuration not stated)	inactive: -3.97%
COc1ccc(OP(C)(=O)Nc2ccc(SC(F)(F)F)cc2)cc1 (configuration not stated)	inactive: 0.904%
CP(=O)(OCCOc1ccccc1)OCCOc1ccccc1	inactive: -18.1%
CP(=O)(Nc1ccc(Cl)cc1Cl)Oc1ccccc1 (configuration not stated)	inactive: -9.81%
CCCCCCCCCCCCCCCC1C[N+](C)(C)CCOP(C)(=O)O1 (configuration not stated)	inactive: 2.57%
Cc1cc(C)cc(OP(C)(=O)Nc2cccc(C(F)(F)F)c2)c1 (configuration not stated)	inactive: 5.42%
COc1ccccc1OP(C)(=O)Nc1ccc(C)c(C)c1 (configuration not stated)	inactive: -4.2%
COc1ccc(OP(C)(=O)Nc2ccccc2Br)cc1 (configuration not stated)	inactive: -3.63%
O=[N+]([O-])c1cc([N+](=O)[O-])c(Nc2ccccn2)c([N+](=O)[O-])c1	inactive: 35.4%

Structure (SMILES)	activity change
Cc1c(NP(C)(=O)Oc2ccc(C(C)C)cc2)c(=O)n(-c2ccccc2)n1C (configuration not stated)	inactive: 0.0115%
COc1ccccc1OP(C)(=O)Nc1ccc(C)cc1C (configuration not stated)	inactive: -15%
CP(=O)(Nc1ccccn1)Oc1ccccc1 (configuration not stated)	inactive: -6.98%
CCc1ccc(OP(C)(=O)O)cc1	inactive: -8.38%
COc1ccccc1OP(C)(=O)Nc1ccc(Br)cc1 (configuration not stated)	inactive: -2.82%
COc1ccc(OP(C)(=O)Nc2ccccn2)cc1 (configuration not stated)	inactive: -0.783%
CN(C)CCOC(=O)C(O)(c1ccccc1)C1CCCC1 (configuration not stated)	inactive: -1.26%
CC(C)(C)c1ccc(OP(C)(=O)O)cc1	inactive: 2.39%
COc1ccccc1OP(C)(=O)Nc1ccccc1Br (configuration not stated)	inactive: 0.768%
CP(=O)(Nc1ccc(Cl)cc1)Oc1ccc(F)cc1 (configuration not stated)	inactive: 2.97%
CN(C)C(=O)c1c([N+](=O)[O-])cc([N+](=O)[O-])cc1[N+](=O)[O-]	inactive: 13.3%
COc1ccc(OP(C)(=O)Nc2ccc(Br)cc2)cc1 (configuration not stated)	inactive: 1.43%
CCN(CC)CC(O)COC(=O)C(O)(c1ccccc1)C1CCCCC1 (configuration not stated)	inactive: -7.43%
O=C(OCCCN1CCCC1)C(O)(c1ccccc1)C1CCCCC1 (configuration not stated)	inactive: -4.5%
COc1ccccc1OP(C)(=O)Nc1c(C)n(C)n(-c2ccccc2)c1=O (configuration not stated)	inactive: -7.24%
CCc1ccc(OP(C)(=O)Nc2cccnc2)cc1 (configuration not stated)	inactive: 0.708%
CP(=O)(Oc1ccccc1)N1CCOC1=O (configuration not stated)	inactive: -4.45%
Nc1ccc2c(ccc3cccnc32)n1.O=[N+]([O-])c1cc([N+](=O)[O-])c(O)c([N+](=O)[O-])c1	inactive: -3.39%
CCOC(=O)c1ccc(NP(C)(=O)Oc2ccc(Cl)cc2)cc1 (configuration not stated)	inactive: 3%
CP(=O)(OC12CC3CC(CC(C3)C1)C2)OC12CC3CC(CC(C3)C1)C2	inactive: 6.18%
